# Antibody variant affinities, Ab-14 heavy chain, assay 1

Values reported by Engelhart et al. 2022, doi:10.1038/s41597-022-01779-4 (FLAb copy).

All variants were tested on one target, the spike HR2 peptide PDVDLGDISGINAS (SARS-CoV-2).

Ab-14 is the parent antibody, in scFv form: VH, then three GGGGS repeats, then VL. The light chain is unchanged in all variants.
VH: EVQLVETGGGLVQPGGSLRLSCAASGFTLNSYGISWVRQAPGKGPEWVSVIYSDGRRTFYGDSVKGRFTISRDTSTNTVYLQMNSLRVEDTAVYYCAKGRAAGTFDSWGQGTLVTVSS
VL: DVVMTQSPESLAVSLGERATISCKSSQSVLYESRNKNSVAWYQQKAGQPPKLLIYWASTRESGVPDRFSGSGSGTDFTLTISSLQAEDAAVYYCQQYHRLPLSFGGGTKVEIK

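The parent was found by panning a naive human phage display library on the peptide. Variants in AAYL49 differ from the parent at up to three CDR positions; double and triple changes were sampled at random. The scFvs were displayed on barcoded MATa yeast, the peptide on MATalpha yeast. The frequency of each diploid, read from paired DNA barcodes, reflects how well the two displayed proteins bind. Each replicate has its own calibration line, from reference interactions of the BCL2 family. Mating was done three times.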

The parent's heavy chain CDRs are GFTLNSYGIS, VIYSDGRRTFYGDSVK, GRAAGTFDS; each variant's own CDRs replace them letter for letter.
Every variant below is changed at N30 of the VH (sequential numbering).
Values are log10 of the apparent Kd in nM; lower means stronger binding.
A mean of the replicates is given; it leaves out those without a signal.
Where no diploid with the target was found in that replicate, the entry reads "nd": below detection, most likely a poor binder, though not proof of it.
Three control strains display no target. For library AAYL49, 15% of the pairings with them gave a signal, with a median of 4.06 and one signal in twenty below 2.83, so weak values seen in few replicates may be background. For each scFv, signals with the empty controls are counted beside the result.

For GFTLYSYGIS / VIYMDGRRTFYGDSVK / GRAAGTFDS, the assay gave nd, nd, nd (controls 1 of 9).
For GFTLQQYGIS / VIYSDGRRTFYGDSVK / GRAAGTTDS, the assay gave 4.99, nd, 5.42 (mean 5.20; controls 3 of 9).
For GFTLCSYGIS / VIISDGRRTFHGDSVK / GRAAGTFDS, the assay gave nd, nd, nd (controls 0 of 9).
For GFTLYSYGIS / VIYSDGRRTFYGDSVK / GRAAITFDS, the assay gave 4.00, nd, nd (controls 2 of 9).
For GFTEMSYGIS / VIYSDGRRTFYGDSVK / GWAAGTFDS, the assay gave nd, 4.47, nd (controls 2 of 9).
For GFTLWSYGIM / VIYSDGRRTFYGDKVK / GRAAGTFDS, the assay gave nd, nd, 3.66 (controls 1 of 9).
For GFTLMSYGIS / VIYSDGRRTFYGDSVK / GRAAWTTDS, the assay gave 4.47, 3.43, nd (mean 3.95; controls 1 of 9).
For GRTLLSYGIH / VIYSDGRRTFYGDSVK / GRAAGTFDS, the assay gave 3.74, nd, 4.08 (mean 3.91; controls 3 of 9).
For GFMLRSYGIS / VIYSDGRKTFYGDSVK / GRAAGTFDS, the assay gave nd, nd, 3.32 (controls 2 of 9).
For GFTLHSYHIS / VIYSDGRRTFYGDSVK / GRAAGTFDF, the assay gave nd, nd, nd (controls 1 of 9).
For GFPLDSYGIS / VIYSDGRRTFYGDSVM / GRAAGTFDS, the assay gave 1.06, 1.17, 1.08 (mean 1.10; controls 6 of 9).
For GFTLLSYGTS / VIYSDGRRTFYGDSVK / GRAAWTFDS, the assay gave nd, nd, nd (controls 0 of 9).
For GFTLTSYGIS / VIYTDGRRTFYGDSVK / GRAAGTFDW, the assay gave nd, nd, 2.23 (controls 0 of 9).
For GFTLFSYGIS / VLYSDGRRTFMGDSVK / GRAAGTFDS, the assay gave nd, 3.26, 3.60 (mean 3.43; controls 3 of 9).
For GFTAWSYGIS / VIYSDGRRTFPGDSVK / GRAAGTFDS, the assay gave nd, nd, 3.62 (controls 1 of 9).
For GYTLKSYGIS / VIYSDGRRTWYGDSVK / GRAAGTFDS, the assay gave nd, 3.04, nd (controls 2 of 9).
For GFTLESYGIS / VIYDDGRRTFYGDSVK / GRAAGTFDS, the assay gave 3.67, 4.33, nd (mean 4.00; controls 1 of 9).
For GFTLASYGIS / VIYSDGRRTFYGDSVG / GRAAGIFDS, the assay gave nd, nd, nd (controls 0 of 9).
For GFTLSSGGIS / VIYSDGRRTFYGDSVN / GRAAGTFDS, the assay gave nd, nd, 5.46 (controls 2 of 9).
For GFTLDSYGIR / VIYSQGRRTFYGDSVK / GRAAGTFDS, the assay gave nd, nd, nd (controls 3 of 9).
For GFTLLSYGIS / VIHSDGRRTFYGDSVK / GRAAGTFIS, the assay gave nd, nd, nd (controls 1 of 9).
For GFTLLSYGIQ / VIYYDGRRTFYGDSVK / GRAAGTFDS, the assay gave 5.65, nd, 5.78 (mean 5.72; controls 2 of 9).
For GFTLISYGIS / VIYSDGSRTFYGDSVK / SRAAGTFDS, the assay gave nd, nd, nd (controls 0 of 9).
For GFTLWSYGIS / VIYSDGRRTFYGPSVK / MRAAGTFDS, the assay gave nd, nd, 2.91 (controls 1 of 9).
For GFTLMSYGIS / VIFSDGRRTFYGDSVK / GRAAGTFDS, the assay gave 1.75, 1.76, 1.96 (mean 1.82; controls 0 of 9).
For GFTLQSYGIS / VIYSDGRRQFYGDSVK / GRAAGTFPS, the assay gave nd, 2.45, 4.24 (mean 3.34; controls 1 of 9).
For GFTLKSPGIS / VIYSDGRRTAYGDSVK / GRAAGTFDS, the assay gave 1.23, 1.66, 1.50 (mean 1.47; controls 8 of 9).
For EFTLDSYGIS / VIYSDGRRTFYGDSAK / GRAAGTFDS, the assay gave 1.88, 2.40, 2.05 (mean 2.11; controls 0 of 9).
For GFQLESYGIS / VIYSDGRRDFYGDSVK / GRAAGTFDS, the assay gave 1.89, 1.41, 1.58 (mean 1.62; controls 2 of 9).
For GFTLTSYGIS / VIYSDGRRTFYGDSDK / GRAAGTFRS, the assay gave nd, nd, nd (controls 1 of 9).
For GFTLSSYGIS / VIYSDGRRTFYGDSVK / IRAAGTFDY, the assay gave nd, nd, nd (controls 0 of 9).